Test results from BindingDB's records for 6492073.
pIC50: −log10 of the molar value.

The chains behind the UniProt entries cited, without tags or fusion partners. Residues count along the entry.
UniProt P22303, 32-614 limits assumed: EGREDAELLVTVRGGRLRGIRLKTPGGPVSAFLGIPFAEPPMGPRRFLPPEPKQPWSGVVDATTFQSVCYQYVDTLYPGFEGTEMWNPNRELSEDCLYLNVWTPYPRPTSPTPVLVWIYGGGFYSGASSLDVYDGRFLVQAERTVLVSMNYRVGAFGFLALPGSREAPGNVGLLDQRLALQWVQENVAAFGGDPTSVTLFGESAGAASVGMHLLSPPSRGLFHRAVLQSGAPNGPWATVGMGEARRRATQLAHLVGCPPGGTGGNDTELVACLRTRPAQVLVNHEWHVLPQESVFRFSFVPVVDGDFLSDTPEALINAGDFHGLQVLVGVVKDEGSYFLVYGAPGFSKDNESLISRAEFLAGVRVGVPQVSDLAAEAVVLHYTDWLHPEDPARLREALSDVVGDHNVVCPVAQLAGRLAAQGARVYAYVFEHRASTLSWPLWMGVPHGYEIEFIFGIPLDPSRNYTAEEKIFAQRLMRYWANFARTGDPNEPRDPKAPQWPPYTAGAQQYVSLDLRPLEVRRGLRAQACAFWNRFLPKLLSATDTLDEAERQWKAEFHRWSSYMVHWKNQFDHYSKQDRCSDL

Biological target: Acetylcholinesterase (Homo sapiens, UniProt P22303)
Test: ChEBML_88385
Description: Concentration of the HOX that inhibits 50% of AChE (Acetylcholinesterase) activity

Molecule `COC[n+]1ccn(C)c1CN=O` has a pIC50 of 3.54.
